From patent EP4663640A1 (Shanghai Institute of Materia Medica, Chinese Academy of …, priority 2023, dated 2024) come the findings set out here.

As usually defined, the IC50 is the point on the concentration scale where inhibition reaches its midpoint.

The target of the assay is T1, hTRPC5 (Homo sapiens, UniProt Q9UL62).
T1 construct: expressed in transfected cells; host or cells: HEK-293
T1 sequence (Q9UL62 1-973): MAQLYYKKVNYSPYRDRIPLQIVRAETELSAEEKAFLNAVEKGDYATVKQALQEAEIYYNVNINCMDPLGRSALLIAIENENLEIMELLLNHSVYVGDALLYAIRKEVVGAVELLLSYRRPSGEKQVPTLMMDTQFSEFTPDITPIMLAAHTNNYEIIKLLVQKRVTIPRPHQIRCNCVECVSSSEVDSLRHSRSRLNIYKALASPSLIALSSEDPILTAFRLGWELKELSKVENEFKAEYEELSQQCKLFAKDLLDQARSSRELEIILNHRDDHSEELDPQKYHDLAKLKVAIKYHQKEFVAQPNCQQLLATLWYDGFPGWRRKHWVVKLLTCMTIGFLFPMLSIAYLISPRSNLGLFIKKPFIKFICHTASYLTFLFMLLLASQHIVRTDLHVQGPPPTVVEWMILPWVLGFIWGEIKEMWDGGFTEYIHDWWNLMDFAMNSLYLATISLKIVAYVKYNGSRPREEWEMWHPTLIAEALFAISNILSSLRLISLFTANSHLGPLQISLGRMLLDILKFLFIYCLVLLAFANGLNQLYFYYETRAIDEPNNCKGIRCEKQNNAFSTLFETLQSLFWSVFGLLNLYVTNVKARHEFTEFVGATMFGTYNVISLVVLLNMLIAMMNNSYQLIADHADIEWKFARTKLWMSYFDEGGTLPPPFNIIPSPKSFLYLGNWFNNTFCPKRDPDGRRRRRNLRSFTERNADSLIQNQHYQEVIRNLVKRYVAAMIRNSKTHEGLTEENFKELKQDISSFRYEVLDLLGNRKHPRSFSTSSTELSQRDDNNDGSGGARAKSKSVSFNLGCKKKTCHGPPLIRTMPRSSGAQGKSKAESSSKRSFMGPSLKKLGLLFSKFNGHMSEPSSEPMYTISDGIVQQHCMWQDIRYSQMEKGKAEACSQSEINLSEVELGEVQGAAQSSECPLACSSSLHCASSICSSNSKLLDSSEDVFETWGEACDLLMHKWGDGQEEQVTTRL
In words: TRPC5 inhibitory activity assay (FLIPR calcium fluorescence, Englerin A stimulation). The format is cell-based.

With `Cn1c(=O)n(CCCO)c(=O)c2c1cc(C1CC1C1CCCC1)n2Cc1ccc(Cl)cc1` (stereo not shown) [Example E3, 5-(4-chlorobenzyl)-6-(2-cyclopentylcyclopropyl)-3-(3-hydroxypropyl)-1-methyl-1,5-dihydro-2H-pyrrolo[3,2-d]pyrimidine-2,4(3H)-dione], the IC50 fell in the range of 50 to 100 nM.
